Measurements: patent publication US11090391B2, “Protein nanocages with enhanced mucus penetration for targeted tissue and intracellular delivery” (The Johns Hopkins University, priority 2016, dated 2021)

Test: PEG surface density, fluorometric determination
Assay type: physicochemical
Details: reassembled FTn by % PEGylated protein
Procedure: The solution was placed on a rotary incubator for 4 hours and then concentrated by centrifugation (Amicon Ultra-0.5 mL 30 K MWCO; Millipore). […] The density was fluorometrically determined (Suk J S, et al., Advanced Drug Delivery Reviews, 99(Pt A):28-51, Epub 2015).
The number of PEG chains per PEG-FTn was fluorometrically determined.
This was calculated with the following formula where D is the average diameter of PEG-FTn: [Γ]=PEG molecules÷[4π(D/2)^2].
The ratio [Γ/SA] of total unconstrained PEG surface coverage area [Γ] to total particle surface area [SA] determines the surface PEG conformation: low-density mushroom and high-density brush regimes when [Γ/SA]<1 and [Γ/SA]≥1, respectively (Xu Q, et al., ACS Nano, 9. 9217-9227 (2015); Auguste D T, Biomaterials, 27, 2599-2608 (2006)). Briefly, the surface area occupied by one unconstrained PEG chain was calculated by random-walk statistics and given by a sphere of diameter ξ: ξ=0.76 m^1/2[Å], where m is MW of PEG chain, and the surface area occupied by one PEG molecule can be determined by π(ξ/2)^2. Thus, the surface area occupied by unconstrained PEG of MWs 10, 5 and 2 kDa is 45, 23 and 9 nm^2, respectively. The total unconstrained PEG surface area coverage [Γ] was then calculated by multiplying the area occupied at the surface per PEG chain by the total number of PEG chains per protein nanocage. Thus, the [Γ/SA] ratio is 2.2±0.3, which falls in the dense brush regime.

## % PEGylated protein 87.5: FTn reassembled with 87.5% PEG2k-PEGylated ferritin protein
  PEG2k density: 0.37 #/nm^2

## % PEGylated protein 37.5: FTn reassembled with 37.5% PEG2k-PEGylated ferritin protein
  PEG2k density: 0.16 #/nm^2

## % PEGylated protein 25: FTn reassembled with 25% PEG2k-PEGylated ferritin protein
  PEG2k density: 0.11 #/nm^2
